Experimental data taken from ChEMBL document CHEMBL5030536, “Subtle Chemical Changes Cross the Boundary between Agonist and Antagonist: New A3 Adenosine Receptor Homology Models and Structural Network Analysis Can Predict This Boundary” (J Med Chem, 2021).

Biological target: Adenosine receptor A2a (Homo sapiens, UniProt P29274)
Test: Displacement of [3H]CGS21680 from recombinant human A2A adenosine receptor expressed in HEK293 cells at 10 uM incubated for 60 mins by liquid scintillation counting method relative to control
Type: cell-based

An inhibition of 20% was found for `CNc1ncnc2c1ncn2[C@@H]1SC[C@@H](N)[C@H]1O` in this work.
